AlphaSeq binding of Ab-14 light chain variants to a spike HR2 peptide

Source: Li et al. 2023 (doi:10.1038/s41467-023-39022-2), MIT Lincoln Laboratory and A-Alpha Bio; data file from the FLAb repository.

Antigen: PDVDLGDISGINAS, a 14-residue peptide of the SARS-CoV-2 spike HR2 region.

The variants keep the heavy chain, the linker and the frameworks of Ab-14 (scFv order VH, a (GGGGS)3 linker, VL).
VH: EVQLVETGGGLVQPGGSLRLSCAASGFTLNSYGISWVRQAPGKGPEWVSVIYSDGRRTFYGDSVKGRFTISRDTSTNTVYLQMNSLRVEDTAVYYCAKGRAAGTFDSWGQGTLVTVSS
VL: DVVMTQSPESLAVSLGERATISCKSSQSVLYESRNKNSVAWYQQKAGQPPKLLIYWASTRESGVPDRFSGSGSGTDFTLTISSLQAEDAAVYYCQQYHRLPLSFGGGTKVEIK

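Phage display of a naive human antibody library on the peptide gave the parent. This is the validation round: designs drawn from the data on random variants, tested in the same kind of assay. Several design methods are mixed in this list. The assay is AlphaSeq: two haploid yeast populations carry antibody and antigen on their surface. Mating (16 h, 30 °C) was followed by selection of diploids and sequencing of their barcodes. Read counts were normalised to the haploid input and turned into Kd by a linear fit to BCL2-family pairs of known affinity, for each replicate. The assay was run in six technical replicates.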

Each variant is given by its three light chain CDRs, as the data file delimits them; those of the parent are KSSQSVLYESRNKNSVA, WASTRES, QQYHRLPLS. Affinities are written as log10 Kd with Kd in nM; a lower number is a better binder. Averages over replicates are reported, and they cover detected replicates only. "nd" marks a missing value. The strain was present, yet no cells mated with the target were sequenced in that replicate, which points to weak or no binding. As a blank, each scFv also met three strains without target: over all light chain designs, 4% of these pairings were detected, typically at 2.64 and seldom below 1.59.

With KLSQSSLYESRNKNSVA | WASTRES | QQYGRVPLS the result was nd, nd, nd, nd, nd, nd.
With KISQSDLYEEFNKNSVA | EASTRES | QQYHRLPLS the result was 0.42, 0.38, 0.43, 0.21, -0.05, 0.19 (mean 0.26).
With KLPQSVLYESRNKNSVA | HASTRED | QQYHQLPLS the result was -0.05, -0.08, -0.16, -0.28, -0.03, -0.21 (mean -0.14).
With KLSQSVAMESRNANSVA | DASTRES | QQYHRLPLS the result was 0.67, 0.14, 0.25, -0.17, 0.49, 0.08 (mean 0.24).
With KVQQSWLYESRNKNSVA | NASYRES | QQYHRLPLS the result was 0.35, 0.35, 0.08, 0.34, 0.35, 0.49 (mean 0.33).
With KVSGSHLYESRNKNSVA | EASTRES | QQYHRLPLS the result was -0.19, -0.04, -0.52, -0.37, -0.73, -0.22 (mean -0.34).
With KSSQSVLYEETNKNSVA | EASYRET | QQYHRLPLS the result was 0.79, 0.84, 0.72, 0.20, 0.88, 0.55 (mean 0.66).
With MLTMFNLENQGRSNNIA | DTNNVQE | QQYSRLPFA the result was 0.55, 0.10, -0.13, 0.05, 0.10, 0.36 (mean 0.17).
With RIQEQYQWPQNAGQNVA | EIQTAID | QQYAHLPLS the result was 1.11, 1.40, 1.33, 2.11, 2.36, 1.43 (mean 1.62).
With KSSQSVLYESRNKNSVA | QDSTRES | QQYHRLPLS the result was 1.07, 2.66, 1.43, 1.19, 0.53, 1.41 (mean 1.38).
With NFSQMVLYGSTLKNSVA | QASTREE | QQYHRLPLI the result was 1.03, 0.95, 0.83, 0.92, 1.00, 0.94 (mean 0.95).
With KSSQSVLYSSRNKNSVA | WASTRES | QQCHRLPLS the result was nd, nd, 1.08, nd, 1.56, 2.67 (mean 1.77).
With IVSQLMLWGLHAKNSIA | EAAMRLN | QQYDRLPLF the result was nd, nd, nd, nd, nd, nd.
With KVSKSVLFESRNKNSVA | NASTRES | QQYHRLPLR the result was 0.46, 0.54, 0.22, 0.37, 0.67, 0.76 (mean 0.50).
With KSSQSFLAESRNKNMVA | GASTRES | QQYHRLTLS the result was nd, nd, nd, nd, nd, nd.
With KISQTVNVGSKNKNSLA | EMSTREF | QDYHRLPLS the result was 0.83, 1.11, 0.95, 0.90, 1.22, 1.33 (mean 1.06).
With KIGMTLNQLLQKKNNVA | DLVERET | QQYFRLPLS the result was 0.46, 0.01, 0.25, 0.26, 0.38, 0.42 (mean 0.29).
With IVSQSMLGESRNKNSVA | NASTREH | QQYHRLPLS the result was 0.21, 0.07, -0.10, 0.11, 0.06, -0.05 (mean 0.05).
With KIIQSVAMSSRNKDSIA | DNSTREY | QQYHRLPLS the result was 2.16, 2.62, 2.70, nd, 2.14, nd (mean 2.41).
With RVTNELGKEMERKQSVA | ETDQRCM | QQYFRLPLI the result was 0.31, 0.42, 0.32, 0.20, 0.19, 0.44 (mean 0.31).
With KSSISGLEESRNKNSVA | EASTRES | QQYHRLPLS the result was 0.27, 0.26, -0.20, -0.40, 0.43, -0.11 (mean 0.04).
With KWSQSVDYESRNKNSVA | NGSTRES | QQYHRLPLS the result was 0.48, 0.37, 0.57, 0.38, 0.53, 0.56 (mean 0.48).
With KSSTSVLYESRNKNSVA | GASTRER | QQYHRLPLS the result was 0.45, 0.90, 0.42, 0.28, 0.48, 0.29 (mean 0.47).
With KSSQSVLYEDRNFNNVA | WASTRES | QQYHRLPLS the result was 1.43, 1.21, 0.61, 0.98, 1.00, 1.29 (mean 1.09).
With KFSESVSYESRNKNSVA | AASTRES | QSYHRLPLS the result was -0.15, -0.29, -0.23, -0.25, -0.31, -0.09 (mean -0.22).
With KLQQLWLYESRNKNSVA | NASTRES | QQYHRLPLS the result was 0.36, 0.10, 0.67, 0.34, 0.34, 0.61 (mean 0.40).
With SSSQSVLEESFNKNSVA | HASTRES | QVYHRIPLS the result was 2.66, 1.57, 1.87, 1.30, 1.29, 1.28 (mean 1.66).
With KSSQAVLYESRNKNSVA | EASTRES | QQYHRLPLS the result was 0.15, 0.19, 0.33, 0.19, 0.03, 0.41 (mean 0.22).
With MLSSVLHMAGVKKNSIA | DLVLRAN | QQYHRLPLS the result was 2.29, 2.23, 1.16, 1.16, 1.52, 2.01 (mean 1.73).
With KSSQSQLYESRNKNSVA | GASTRED | QQYHRLTLS the result was nd, -0.27, nd, nd, -1.33, nd (mean -0.80).
With KLSWSQLYESRNKNSVA | NASQRES | QQYHRLPLS the result was 0.15, 0.21, 0.13, -0.10, -0.05, 0.21 (mean 0.09).
With KSSQSVNYESQNKNSIA | DASTRES | QQYHRLPLS the result was -0.22, -0.32, -0.33, -0.34, -0.36, -0.03 (mean -0.27).
With KFSQKVLYEHRQKNSVA | NASTRES | QQYHRLPLS the result was 0.91, 1.08, 0.53, 0.45, 0.43, 0.56 (mean 0.66).
With KMSPSELYQDRNCNAVA | QASQRES | QQYHRLPLS the result was 0.37, 0.21, 0.06, 0.10, 0.56, 0.52 (mean 0.30).
With KLLQEVTGHSRHRNSVA | HNSTRED | QQYDRLPLS the result was nd, nd, 2.36, 2.67, 2.44, nd (mean 2.49).
With KLSQSMLYESRMKNSVA | NASTRES | QQYHRLPLS the result was 0.09, -0.04, -0.13, -0.17, 0.03, -0.13 (mean -0.06).
With KSSQSVLYESRNPNSVA | EASTRES | QQYHRLPLS the result was -0.24, -0.44, -0.63, -0.58, -0.48, -0.33 (mean -0.45).
With KSSQSVLYESMNENSVA | WASTRES | QQYHRLPLS the result was nd, nd, 2.23, nd, nd, nd.
With KIQWYQLEIRDPGSAVA | EASVRYN | QQYMRLPLE the result was nd, nd, nd, nd, nd, nd.
With KLSQSVLYESRNKNAVA | NASQRES | QQYHRLPLS the result was 0.32, 0.33, 0.22, 0.08, 0.11, 0.29 (mean 0.23).
With KISYMGEHFSTNHSAIA | QASTREV | QQYHRLPIS the result was 0.99, 1.17, 1.04, 0.83, 0.91, 1.01 (mean 0.99).
With KQSQSVLYEWRNSNSVA | DASTRES | QQYHRLPLS the result was 0.59, 0.59, 0.42, 0.24, 0.33, 0.47 (mean 0.44).
With KLSQITGHMSVSKNNVA | EMETRAN | QQYDRLPLS the result was 1.20, 0.87, 0.63, 0.78, 0.97, 1.02 (mean 0.91).
With KLSQSVNMTGKNKNSVA | ELSFREN | QQYERLPLS the result was 0.92, 0.90, 0.61, 0.95, 1.30, 0.75 (mean 0.91).
With MISQVMNTLTRIGNNVA | DLAEREV | QQYFRLPLS the result was 1.48, 1.81, nd, nd, nd, 1.61 (mean 1.63).
With KQQFSSGMESRNKNSVA | SASTRCS | QQYHRLPLS the result was 0.46, 0.44, 0.31, 0.65, 0.56, 0.70 (mean 0.52).
With KLSMSYRQETEEKNSIA | ELVTRMS | QQYHRLPLS the result was 1.91, 1.10, 1.00, 0.81, 0.77, 0.98 (mean 1.10).
With KLSQSVLYESRMKNSVA | DASTRES | QQYHRLPLS the result was -0.27, -0.41, -0.41, -0.65, -0.43, -0.36 (mean -0.42).
With RVQQWSGHSDMHWKSIA | SASLRAQ | QQYARLPLE the result was 1.22, 1.23, 0.90, 1.42, 1.46, 0.99 (mean 1.20).
With KQSQSVLYESVNKNSVA | DASTREQ | QQYHRLPLS the result was 0.23, 0.48, -0.05, -0.02, 0.21, 0.66 (mean 0.25).
With KLQFSCLYESRWPNSVA | NASYRSS | QQYHRLPLS the result was 1.08, 0.74, 0.86, 0.77, 0.74, 1.03 (mean 0.87).
With NLSQSWLYESRNKNSVA | SGNTRES | QQYHRLPLS the result was -0.16, -0.30, -0.44, -0.51, -0.31, -0.08 (mean -0.30).

Again, the first 4 entries without any signal:

With KLSQSSLYESRNKNSVA | WASTRES | QQYGRVPLS the result was nd, nd, nd, nd, nd, nd.
With IVSQLMLWGLHAKNSIA | EAAMRLN | QQYDRLPLF the result was nd, nd, nd, nd, nd, nd.
With KSSQSFLAESRNKNMVA | GASTRES | QQYHRLTLS the result was nd, nd, nd, nd, nd, nd.
With KIQWYQLEIRDPGSAVA | EASVRYN | QQYMRLPLE the result was nd, nd, nd, nd, nd, nd.

The range of this assay differs from that of the first round, and the authors advise against merging the two. In the paper, a design with two or fewer of six values counts as a poor binder.